Experimental data reported in article PMC5038948 (PLoS ONE, 2016).

The chains behind the UniProt entries cited, without tags or fusion partners. Residues count along the entry.
UniProt P08246, 30-267: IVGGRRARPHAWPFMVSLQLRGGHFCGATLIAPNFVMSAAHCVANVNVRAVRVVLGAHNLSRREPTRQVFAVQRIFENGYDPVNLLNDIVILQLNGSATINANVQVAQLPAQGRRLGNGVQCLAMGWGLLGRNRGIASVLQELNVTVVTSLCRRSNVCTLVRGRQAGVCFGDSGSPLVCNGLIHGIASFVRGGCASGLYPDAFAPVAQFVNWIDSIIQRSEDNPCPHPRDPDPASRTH

Legend:
Test in all cases: ELISA; CAP37, neutrophil elastase, cathepsin G or Aβ1-42 (0.5 μg/well) or BSA (1000 μg/well) coated on Maxisorp plates in PBS pH 7.4; RAGE Fc chimera 0–3.3 nM in PBST with 0.1% BSA, 37°C, 70 min; bound RAGE detected with goat anti-RAGE; BSA subtracted as background for KD
Details in all cases: both partners purified
neutrophil elastase = neutrophil elastase (human, UniProt P08246, native N-glycosylated, disulfide-bonded active enzyme from human neutrophils. Limits are not printed: the signal and activation dipeptide are removed (starts at 30), and the C-terminal propeptide is t)
[1] = target: T1, cationic antimicrobial protein of 37kDa (CAP37) (human, UniProt P20160 27-251)
T1 construct: cationic antimicrobial protein of 37kDa (CAP37, encoded by AZU1), human, purified from neutrophils, >95% pure by SDS-PAGE; also called AZU1; source: purified from human neutrophils; bought: Athens Research & Technology
T1 sequence (looked up): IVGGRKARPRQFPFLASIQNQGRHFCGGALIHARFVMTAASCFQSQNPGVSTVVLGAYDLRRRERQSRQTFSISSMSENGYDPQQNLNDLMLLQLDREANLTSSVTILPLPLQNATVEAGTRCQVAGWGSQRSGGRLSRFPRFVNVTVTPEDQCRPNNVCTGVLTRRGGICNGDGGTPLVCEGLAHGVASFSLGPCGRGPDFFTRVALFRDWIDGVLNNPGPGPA

cathepsin G = target: T2, cathepsin G (human, UniProt P08311 21-244)
T2 construct: cathepsin G (CTSG), human, purified from neutrophils, >95% pure by SDS-PAGE; also called CG; CTSG; source: purified from human neutrophils; bought: Athens Research & Technology
T2 sequence (looked up): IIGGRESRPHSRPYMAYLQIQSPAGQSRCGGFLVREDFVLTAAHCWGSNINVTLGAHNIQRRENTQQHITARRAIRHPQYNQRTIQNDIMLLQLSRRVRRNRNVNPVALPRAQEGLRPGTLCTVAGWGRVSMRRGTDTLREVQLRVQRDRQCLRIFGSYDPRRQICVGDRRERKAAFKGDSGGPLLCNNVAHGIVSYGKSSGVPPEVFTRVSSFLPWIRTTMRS

B1: Recombinant human RAGE Fc chimera (Fc fusion, UniProt Q15109 23-342, looked up)
chain: AQNITARIGEPLVLKCKGAPKKPPQRLEWKLNTGRTEAWKVLSPQGGGPWDSVARVLPNGSLFLPAVGIQDEGIFRCQAMNRNGKETKSNYRVRVYQIPGKPEIVDSASELTAGVPNKVGTCVSEGSYPAGTLSWHLDGKPLVPNEKGVSVKEQTRRHPETGLFTLQSELMVTPARGGDPRPTFSCSFSPGLPRHRALRTAPIQPRVWEPVPLEEVQLVVEPEGGAVAPGGTVTLTCEVPAQPSPQIHWMKDGVPLPLPPSPVLILPEIGPQDQGTYSCVATHSSHGPQESRAVSISIIEPGEEGPTAGSVGGSGLGTLA
notes: receptor for advanced glycation end products (RAGE), human, recombinant, fused to Fc; No catalogue number printed; also called receptor for advanced glycation end products; AGER; source: bought: R&D Systems
Log binding at 1.67 nM RAGE (neutrophil elastase): -0.274 log OD
Log binding at 3.33 nM RAGE (neutrophil elastase): -0.121 log OD
Log binding at 0.21 nM RAGE [1]: -0.174 log OD
Log binding at 0.42 nM RAGE [1]: -0.012 log OD
Log binding at 0.83 nM RAGE [1]: 0.112 log OD
Log binding at 1.67 nM RAGE [1]: 0.228 log OD
Log binding at 3.33 nM RAGE [1]: 0.325 log OD
Log binding at 0.21 nM RAGE (cathepsin G): -0.264 log OD
Log binding at 0.42 nM RAGE (cathepsin G): -0.078 log OD
Log binding at 0.83 nM RAGE (cathepsin G): 0.101 log OD
Log binding at 1.67 nM RAGE (cathepsin G): 0.166 log OD
Log binding at 3.33 nM RAGE (cathepsin G): 0.192 log OD
